Reference: ChEMBL document CHEMBL5150000, “Insights on Dengue and Zika NS5 RNA-dependent RNA polymerase (RdRp) inhibitors” (Eur J Med Chem, 2021)

Experiments:
[1] = Cytotoxicity against hamster BHK-21 cells assessed as reduction in cell viability incubated for 24 hrs by Celltiter assay; assay type: toxicity, cell-based, Mesocricetus auratus
[2] = species: Chlorocebus aethiops; test: Cytotoxicity against African green monkey COS-7 cells assessed as reduction in cell viability incubated for 24 hrs by Celltiter assay

COc1ccc(-c2cc(=O)c3c(O)cc(O)c(-c4cc(-c5cc(=O)c6c(O)cc(O)cc6o5)ccc4O)c3o2)cc1 [PODOCARPUSFLAVONE A]
IC50 at 24 h [1]: 0.75 µM
IC50 at 24 h [2]: 0.75 µM
